Measurements from patent US20260382728A1, “MODIFIED PROTEINS AND PROTEIN BINDERS AND DEGRADERS” (published 2026).

By UniProt entry, the sequences of proteins in these tests, tags left out.
UniProt P03372, whole entry: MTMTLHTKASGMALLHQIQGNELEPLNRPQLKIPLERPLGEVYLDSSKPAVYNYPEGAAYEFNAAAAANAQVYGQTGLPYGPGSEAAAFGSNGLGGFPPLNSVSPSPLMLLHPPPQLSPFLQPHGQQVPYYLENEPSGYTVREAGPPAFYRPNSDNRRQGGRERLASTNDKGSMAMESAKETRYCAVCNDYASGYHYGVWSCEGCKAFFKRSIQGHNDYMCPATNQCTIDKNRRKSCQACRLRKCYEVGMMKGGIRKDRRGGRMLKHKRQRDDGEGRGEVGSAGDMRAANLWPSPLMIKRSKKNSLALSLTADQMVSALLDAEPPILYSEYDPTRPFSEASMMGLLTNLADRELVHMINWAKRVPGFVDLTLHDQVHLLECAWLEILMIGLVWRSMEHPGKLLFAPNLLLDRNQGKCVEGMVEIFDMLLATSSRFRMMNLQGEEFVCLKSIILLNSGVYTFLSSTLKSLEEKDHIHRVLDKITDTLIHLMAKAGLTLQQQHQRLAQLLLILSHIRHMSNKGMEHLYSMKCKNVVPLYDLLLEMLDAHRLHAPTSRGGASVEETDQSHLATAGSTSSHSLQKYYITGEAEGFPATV
UniProt P11802, whole entry: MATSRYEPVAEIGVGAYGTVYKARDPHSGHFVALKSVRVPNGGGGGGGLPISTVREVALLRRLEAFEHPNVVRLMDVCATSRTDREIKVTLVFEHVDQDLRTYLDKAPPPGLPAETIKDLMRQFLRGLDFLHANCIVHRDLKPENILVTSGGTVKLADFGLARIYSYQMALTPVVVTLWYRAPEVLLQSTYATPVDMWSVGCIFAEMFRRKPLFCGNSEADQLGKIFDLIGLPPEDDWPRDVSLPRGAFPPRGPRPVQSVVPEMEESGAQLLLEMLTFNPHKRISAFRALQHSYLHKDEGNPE

Key:
BRD4 = BRD4 (Homo sapiens, UniProt O60885); experiment: BRD4 degradation in MV4;11 cells (immunoblotting)
MV4;11 cells = experiment: Cell viability inhibition of MV4;11 cells (CellTiter-Glo); conditions: read-out: Cell viability inhibition IC50, 3 days, 3-fold serial dilution
ERα = ERα (Homo sapiens, UniProt P03372); experiment: ERα degradation in T47D cells; conditions: serum starved 2 hours, 24 hours, serum-free
CDK4 [1] = biological target: T1, CDK4 (Homo sapiens, UniProt P11802); experiment: CDK4 degradation in T47D cells (immunoblotting); conditions: 16 hours
cyclin D1 = experiment: Cyclin D1 degradation in T47D cells (immunoblotting); conditions: 16 hours
CDK4 [2] = biological target: T1, CDK4; experiment: CDK4 degradation in MOLT-4 cells (immunoblotting); conditions: 8 hours

Structure (SMILES)	% BRD4 Degradation (at 10 μM) (BRD4)	IC50 (MV4;11 cells) [nM]	% CDK4 Degradation (at 1 μM) (CDK4 [2])	% CDK4 degradation (at 10 μM) (CDK4 [2])	other results
Cc1sc2c(c1C)C(c1ccc(Cl)cc1)=N[C@@H](CC(=O)NCCNC(=O)CCCCCCCN1CCN(c3cc(N[C@@H]4CCCN(c5cccc(F)c5)C4)ncn3)CC1)c1nnc(C)n1-2	D (D < 20%)	100 to 300	–	–	–
Cc1sc2c(c1C)C(c1ccc(Cl)cc1)=N[C@@H](CC(=O)NCCCCCCN1CCN(c3cc(N[C@@H]4CCCN(c5cccc(F)c5)C4)ncn3)CC1)c1nnc(C)n1-2	D (D < 20%)	100 to 300	–	–	–
O=C(NCCCCOc1ccc([C@@H]2c3ccc(O)cc3CC[C@@H]2c2ccccc2)cc1)c1ccnc(N2CCC3(CCN(c4ccccc4)C3)C2)c1 (stereo partly shown)	–	–	–	–	% ERα Degradation (at 1 μM) (ERα): C (20% ≤ C < 40%)
Cc1sc2c(c1C)C(c1ccc(Cl)cc1)=N[C@@H](CC(=O)NCCNC(=O)CCOCCOCCN1CCN(c3cc(N[C@@H]4CCCN(c5cccc(F)c5)C4)ncn3)CC1)c1nnc(C)n1-2	D (D < 20%)	300 to 1000	–	–	–
Cc1sc2c(c1C)C(c1ccc(Cl)cc1)=N[C@@H](CC(=O)NCCNC(=O)CCOCCOCCOCCOCCN1CCN(c3cc(N[C@@H]4CCCN(c5cccc(F)c5)C4)ncn3)CC1)c1nnc(C)n1-2	D (D < 20%)	300 to 1000	–	–	–
C[C@]1(O)CCC[C@@H]1n1c(=O)c(C(F)F)cc2cnc(NC3CCN(C(=O)CCCCN4CCN(c5cc(N[C@@H]6CCCN(c7cccc(F)c7)C6)ncn5)CC4)CC3)nc21	–	–	–	–	% CDK4 Degradation (at 1 μM) (CDK4 [1]): A (A: ≥ 70%); % Cyclin D1 Degradation (at 1 μM) (cyclin D1): A (A: ≥ 70%)
C[C@]1(O)CCC[C@@H]1n1c(=O)c(C(F)F)cc2cnc(NC3CCN(C(=O)CCCCCN4CCN(c5cc(N[C@@H]6CCCN(c7cccc(F)c7)C6)ncn5)CC4)CC3)nc21	–	–	–	–	% CDK4 Degradation (at 1 μM) (CDK4 [1]): B (40% ≤ B < 70%); % Cyclin D1 Degradation (at 1 μM) (cyclin D1): A (A: ≥ 70%)
CC(C)S(=O)(=O)c1ccccc1Nc1nc(Nc2ccc(N3CCN(C(=O)CCOCCN4CCN(c5cc(N[C@@H]6CCCN(c7cccc(F)c7)C6)ncn5)CC4)CC3)cc2)ncc1Cl	–	–	B (40% ≤ B < 70%)	A (A: ≥ 70%)	–
CC(C)S(=O)(=O)c1ccccc1Nc1nc(Nc2ccc(N3CCN(C(=O)CCCCN4CCN(c5cc(N[C@@H]6CCCN(c7cccc(F)c7)C6)ncn5)CC4)CC3)cc2)ncc1Cl	–	–	D (D < 20%)	C (20% ≤ C < 40%)	–
CC(C)S(=O)(=O)c1ccccc1Nc1nc(Nc2ccc(N3CCN(C(=O)CCCCCCCN4CCN(c5cc(N[C@@H]6CCCN(c7cccc(F)c7)C6)ncn5)CC4)CC3)cc2)ncc1Cl	–	–	C (20% ≤ C < 40%)	B (40% ≤ B < 70%)	–
Cc1sc2c(c1C)C(c1ccc(Cl)cc1)=N[C@@H](CC(=O)NCCN1CCN(c3cc(N[C@@H]4CCCN(c5cccc(F)c5)C4)ncn3)CC1)c1nnc(C)n1-2	A (A: ≥ 70%)	< 100	–	–	–
O=C(NCCOCCOc1ccc([C@@H]2c3ccc(O)cc3CC[C@@H]2c2ccccc2)cc1)c1ccnc(N2CCC3(CCN(c4ccccc4)C3)C2)c1 (stereo partly shown)	–	–	–	–	% ERα Degradation (at 1 μM) (ERα): D (D < 20%)
C[C@]1(O)CCC[C@@H]1n1c(=O)c(C(F)F)cc2cnc(NC3CCN(C(=O)CCCCCCCN4CCN(c5cc(N[C@@H]6CCCN(c7cccc(F)c7)C6)ncn5)CC4)CC3)nc21	–	–	–	–	% CDK4 Degradation (at 1 μM) (CDK4 [1]): C (20% ≤ C < 40%); % Cyclin D1 Degradation (at 1 μM) (cyclin D1): D (D < 20%)
Cc1sc2c(c1C)C(c1ccc(Cl)cc1)=N[C@@H](CC(=O)NCCNC(=O)CCOCCN1CCN(c3cc(N[C@@H]4CCCN(c5cccc(F)c5)C4)ncn3)CC1)c1nnc(C)n1-2	D (D < 20%)	300 to 1000	–	–	–
CC(C)S(=O)(=O)c1ccccc1Nc1nc(Nc2ccc(N3CCN(CC(=O)NCCCCCCN4CCN(c5cc(N[C@@H]6CCCN(c7cccc(F)c7)C6)ncn5)CC4)CC3)cc2)ncc1Cl	–	–	D (D < 20%)	C (20% ≤ C < 40%)	–
O=C(NCCCCCOc1ccc([C@@H]2c3ccc(O)cc3CC[C@@H]2c2ccccc2)cc1)c1ccnc(N2CCC3(CCN(c4ccccc4)C3)C2)c1 (stereo partly shown)	–	–	–	–	% ERα Degradation (at 1 μM) (ERα): D (D < 20%)
C[C@]1(O)CCC[C@@H]1n1c(=O)c(C(F)F)cc2cnc(NC3CCN(C(=O)CN4CCN(c5cc(N[C@@H]6CCCN(c7cccc(F)c7)C6)ncn5)CC4)CC3)nc21	–	–	–	–	% CDK4 Degradation (at 1 μM) (CDK4 [1]): A (A: ≥ 70%); % Cyclin D1 Degradation (at 1 μM) (cyclin D1): A (A: ≥ 70%)
CC(C)S(=O)(=O)c1ccccc1Nc1nc(Nc2ccc(N3CCN(CC(=O)NCCOCCOCCOCCN4CCN(c5cc(N[C@@H]6CCCN(c7cccc(F)c7)C6)ncn5)CC4)CC3)cc2)ncc1Cl	–	–	D (D < 20%)	A (A: ≥ 70%)	–
CC(C)S(=O)(=O)c1ccccc1Nc1nc(Nc2ccc(N3CCN(C(=O)CN4CCN(c5cc(N[C@@H]6CCCN(c7cccc(F)c7)C6)ncn5)CC4)CC3)cc2)ncc1Cl	–	–	D (D < 20%)	B (40% ≤ B < 70%)	–
C[C@]1(O)CCC[C@@H]1n1c(=O)c(C(F)F)cc2cnc(NC3CCN(C(=O)CCCN4CCN(c5cc(N[C@@H]6CCCN(c7cccc(F)c7)C6)ncn5)CC4)CC3)nc21	–	–	–	–	% CDK4 Degradation (at 1 μM) (CDK4 [1]): A (A: ≥ 70%); % Cyclin D1 Degradation (at 1 μM) (cyclin D1): A (A: ≥ 70%)
